Substance: dextran sulfate MW 10,000 [DS-10,000, reference compound]
- CC50 Hep-2 (Hep-2 cells): >100 µg/mL
- CC50 Vero (Vero cells): >100 µg/mL
